Like-named read-outs stand apart in the source and are kept apart here.
What was measured:
[1] = target: human recombinant 5-HT2C edited receptor (accession number AAF35842.1) (Homo sapiens, UniProt P28335, I156V/N158S/I160V); assay: Serotonin 5-HT2C in vitro cellular IPOne agonism assay; conditions: read-out: 5HT2C IPONE AGONISM ACTIVITY, CHO-K1 cells, 60 min
[2] = target: 5-HT2C edited (accession number AAF35842.1) (Homo sapiens, UniProt P28335, I156V/I160V/N158S); assay: Serotonin 5-HT2C in vitro radioligand binding competition assay; conditions: read-out: 5HT2C RADIOLIGAND BINIDNG ACTIVITY, [3H]-DOI radiotracer, membrane extracts

Chains of the proteins cited; added tags and fusions are not shown. Residues count along the entry.
UniProt P28335, whole entry I156V/N158S/I160V, looked up: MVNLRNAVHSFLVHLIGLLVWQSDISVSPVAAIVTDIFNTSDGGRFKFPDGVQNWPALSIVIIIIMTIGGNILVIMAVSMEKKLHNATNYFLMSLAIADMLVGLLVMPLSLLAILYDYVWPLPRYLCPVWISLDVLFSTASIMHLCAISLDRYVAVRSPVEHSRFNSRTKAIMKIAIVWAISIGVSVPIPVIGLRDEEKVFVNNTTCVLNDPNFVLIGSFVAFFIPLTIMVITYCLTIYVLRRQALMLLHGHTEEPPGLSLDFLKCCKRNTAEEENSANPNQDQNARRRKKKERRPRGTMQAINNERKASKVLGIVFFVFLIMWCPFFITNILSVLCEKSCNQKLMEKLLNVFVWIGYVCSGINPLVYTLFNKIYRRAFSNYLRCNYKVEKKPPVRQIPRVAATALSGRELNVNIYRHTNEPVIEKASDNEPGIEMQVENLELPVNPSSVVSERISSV
UniProt P28335, 33-458 I156V/N158S/I160V limits assumed: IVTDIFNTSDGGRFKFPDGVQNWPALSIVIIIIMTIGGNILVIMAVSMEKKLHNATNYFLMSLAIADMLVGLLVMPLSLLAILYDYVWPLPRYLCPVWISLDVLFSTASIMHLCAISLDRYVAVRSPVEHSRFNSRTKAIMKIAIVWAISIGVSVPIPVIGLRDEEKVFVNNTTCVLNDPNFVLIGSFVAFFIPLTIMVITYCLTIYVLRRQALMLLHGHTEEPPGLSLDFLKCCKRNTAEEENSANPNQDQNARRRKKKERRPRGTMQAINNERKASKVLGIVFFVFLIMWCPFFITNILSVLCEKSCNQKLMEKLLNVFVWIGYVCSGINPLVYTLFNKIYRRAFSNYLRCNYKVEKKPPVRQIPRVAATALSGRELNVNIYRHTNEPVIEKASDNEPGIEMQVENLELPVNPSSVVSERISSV

| Structure (SMILES) | EC50 ([1]; benzofurans) [nM] | IC50 ([2]; benzofurans) [nM] | EC50 ([1]; benzothiophenes) [nM] | IC50 ([2]; benzothiophenes) [nM] |
| --- | --- | --- | --- | --- |
| Fc1cccc2oc3c(c12)CN(C1CCC1)CCC3 [Compound 1, 2-cyclobutyl-10-fluoro-2,3,4,5-tetrahydro-1H-benzofuro[3,2-c]azepine] | > 10000 | 1000 to 10000 |  |  |
| Fc1cccc2oc3c(c12)CCN(C1CCC1)CC3 [Compound 2, 3-cyclobutyl-10-fluoro-2,3,4,5-tetrahydro-1H-benzofuro[2,3-d]azepine] | 1000 to 10000 | 1000 to 10000 |  |  |
| CN1CCc2oc3cccc(F)c3c2CC1 [Compound 3, 10-fluoro-3-methyl-2,3,4,5-tetrahydro-1H-benzofuro[2,3-d]azepine] | 10 to 100 | 10 to 100 |  |  |
| CN1CCCc2oc3cccc(F)c3c2C1 [Compound 4, 10-fluoro-2-methyl-2,3,4,5-tetrahydro-1H-benzofuro[3,2-c]azepine] | > 10000 | 1000 to 10000 |  |  |
| Fc1cccc2oc3c(c12)CN(CC(F)(F)F)CCC3 [Compound 5, 10-fluoro-2-(2,2,2-trifluoroethyl)-2,3,4,5-tetrahydro-1H-benzofuro[3,2-c]azepine] | 1000 to 10000 | 1000 to 10000 |  |  |
| Fc1ccc2c3c(oc2c1)CCCNC3 [Compound 6, 8-fluoro-2,3,4,5-tetrahydro-1H-benzofuro[3,2-c]azepine] | 1000 to 10000 | 1000 to 10000 |  |  |
| Fc1cccc2oc3c(c12)CNCCC3 [Compound 7, 10-fluoro-2,3,4,5-tetrahydro-1H-benzofuro[3,2-c]azepine] | 1000 to 10000 | 1000 to 10000 |  |  |
| Fc1cccc2oc3c(c12)CCN(CC(F)(F)F)CC3 [Compound 8, 10-fluoro-3-(2,2,2-trifluoroethyl)-2,3,4,5-tetrahydro-1H-benzofuro[2,3-d]azepine] | > 10000 | > 10000 |  |  |
| CN1CCCc2oc3cc(F)ccc3c2C1 [Compound 9, 8-fluoro-2-methyl-2,3,4,5-tetrahydro-1H-benzofuro[3,2-c]azepine] | 1000 to 10000 | 1000 to 10000 |  |  |
| Fc1cccc2oc3c(c12)CCNCC3 [Compound 10, 10-fluoro-2,3,4,5-tetrahydro-1H-benzofuro[2,3-d]azepine] | 10 to 100 | 10 to 100 |  |  |
| COc1ccc2c3c(oc2c1)CCCN(CC(F)(F)F)C3 [Compound 11, 8-methoxy-2-(2,2,2-trifluoroethyl)-2,3,4,5-tetrahydro-1H-benzofuro[3,2-c]azepine] | > 10000 | > 10000 |  |  |
| COc1ccc2c3c(oc2c1)CCCN(C1CCC1)C3 [Compound 12, 2-cyclobutyl-8-methoxy-2,3,4,5-tetrahydro-1H-benzofuro[3,2-c]azepine] | > 10000 | > 10000 |  |  |
| FC(F)(F)CN1CCCc2oc3ccccc3c2C1 [Compound 13, 2-(2,2,2-trifluoroethyl)-2,3,4,5-tetrahydro-1H-benzofuro[3,2-c]azepine] | > 10000 | > 10000 |  |  |
| COc1cccc2oc3c(c12)CN(C1CCC1)CCC3 [Compound 14, 2-cyclobutyl-10-methoxy-2,3,4,5-tetrahydro-1H-benzofuro[3,2-c]azepine] | 1000 to 10000 |  |  |  |
| COc1cccc2oc3c(c12)CCN(C1CCC1)CC3 [Compound 15, 3-cyclobutyl-10-methoxy-2,3,4,5-tetrahydro-1H-benzofuro[2,3-d]azepine] | 101 to 1000 | 101 to 1000 |  |  |
| COc1cccc2oc3c(c12)CCNCC3 [Compound 16, 10-methoxy-2,3,4,5-tetrahydro-1H-benzofuro[2,3-d]azepine] | < 10 | < 10 |  |  |
| COc1ccc2c3c(oc2c1)CCCN(C)C3 [Compound 17, 8-methoxy-2-methyl-2,3,4,5-tetrahydro-1H-benzofuro[3,2-c]azepine] | 1000 to 10000 | 1000 to 10000 |  |  |
| COc1cccc2oc3c(c12)CNCCC3 [Compound 18, 10-methoxy-2,3,4,5-tetrahydro-1H-benzofuro[3,2-c]azepine] | 101 to 1000 | 101 to 1000 |  |  |
| COc1ccc2c3c(oc2c1)CCCNC3 [Compound 19, 8-methoxy-2,3,4,5-tetrahydro-1H-benzofuro[3,2-c]azepine] | 1000 to 10000 | 1000 to 10000 |  |  |
| c1ccc2c3c(oc2c1)CCCN(C1CCC1)C3 [Compound 20, 2-cyclobutyl-2,3,4,5-tetrahydro-1H-benzofuro[3,2-c]azepine] | 1000 to 10000 | 1000 to 10000 |  |  |
| CN1CCCc2oc3ccccc3c2C1 [Compound 21, 2-methyl-2,3,4,5-tetrahydro-1H-benzofuro[3,2-c]azepine] | 1000 to 10000 | 1000 to 10000 |  |  |
| c1ccc2c3c(oc2c1)CCCNC3 [Compound 22, 2,3,4,5-tetrahydro-1H-benzofuro[3,2-c]azepine] | 1000 to 10000 | 1000 to 10000 |  |  |
| CN1CCc2oc3cc(F)ccc3c2CC1 [Compound 23, 8-fluoro-3-methyl-2,3,4,5-tetrahydro-1H-benzofuro[2,3-d]azepine] | 10 to 100 | 10 to 100 |  |  |

| Structure (SMILES) | EC50 ([1]; benzofurans) [nM] | IC50 ([2]; benzofurans) [nM] | EC50 ([1]; benzothiophenes) [nM] | IC50 ([2]; benzothiophenes) [nM] |
| --- | --- | --- | --- | --- |
| Fc1ccc2c3c(oc2c1)CCNCC3 [Compound 24, 8-fluoro-2,3,4,5-tetrahydro-1H-benzofuro[2,3-d]azepine] | 10 to 100 | 10 to 100 |  |  |
| COc1ccc2c3c(oc2c1)CCN(C1CCC1)CC3 [Compound 25, 3-cyclobutyl-8-methoxy-2,3,4,5-tetrahydro-1H-benzofuro[2,3-d]azepine] | > 10000 | > 10000 |  |  |
| COc1ccc2c3c(oc2c1)CCN(C)CC3 [Compound 26, 8-methoxy-3-methyl-2,3,4,5-tetrahydro-1H-benzofuro[2,3-d]azepine] | 1000 to 10000 | 101 to 1000 |  |  |
| COc1ccc2c3c(oc2c1)CCNCC3 [Compound 27, 8-methoxy-2,3,4,5-tetrahydro-1H-benzofuro[2,3-d]azepine] | 101 to 1000 | 101 to 1000 |  |  |
| c1ccc2c3c(oc2c1)CCN(C1CCC1)CC3 [Compound 28, 3-cyclobutyl-2,3,4,5-tetrahydro-1H-benzofuro[2,3-d]azepine] | 101 to 1000 | 1000 to 10000 |  |  |
| FC(F)(F)CN1CCc2oc3ccccc3c2CC1 [Compound 29, 3-(2,2,2-trifluoroethyl)-2,3,4,5-tetrahydro-1H-benzofuro[2,3-d]azepine] | > 10000 | > 10000 |  |  |
| CN1CCc2oc3ccccc3c2CC1 [Compound 30, 3-methyl-2,3,4,5-tetrahydro-1H-benzofuro[2,3-d]azepine] | 10 to 100 | 10 to 100 |  |  |
| c1ccc2c3c(oc2c1)CCNCC3 [Compound 31, 2,3,4,5-tetrahydro-1H-benzofuro[2,3-d]azepine] | 10 to 100 | 10 to 100 |  |  |
| Fc1ccc2c3c(sc2c1)CCN(C1CCC1)CC3 [Compound 32, 3-cyclobutyl-8-fluoro-2,3,4,5-tetrahydro-1H-benzo[4,5]thieno[2,3-d]azepine] |  |  | 101 to 1000 | 101 to 1000 |
| CN1CCc2sc3cc(F)ccc3c2CC1 [Compound 33, 8-fluoro-3-methyl-2,3,4,5-tetrahydro-1H-benzo[4,5]thieno[2,3-d]azepine] |  |  | < 10 | < 10 |
| COc1ccc2c3c(sc2c1)CCN(C)CC3 [Compound 34, 8-methoxy-3-methyl-2,3,4,5-tetrahydro-1H-benzo[4,5]thieno[2,3-d]azepine] |  |  | 101 to 1000 |  |
| COc1ccc2c3c(sc2c1)CCNCC3 [Compound 35, 8-methoxy-2,3,4,5-tetrahydro-1H-benzo[4,5]thieno[2,3-d]azepine] |  |  | 10 to 100 | 101 to 1000 |
| CN1CCc2oc3cc(C(F)(F)F)ccc3c2CC1 [Compound 39, 3-methyl-8-(trifluoromethyl)-2,3,4,5-tetrahydro-1H-benzofuro[2,3-d]azepine] | 1000 to 10000 | 1000 to 10000 |  |  |
| CN1CCc2oc3cc(OC(F)(F)F)ccc3c2CC1 [Compound 40, 3-methyl-8-(trifluoromethoxy)-2,3,4,5-tetrahydro-1H-benzofuro[2,3-d]azepine] | 101 to 1000 | 1000 to 10000 |  |  |
| CN1CCc2oc3cc(OCc4ccccc4)ccc3c2CC1 [Compound 41, 8-(benzyloxy)-3-methyl-2,3,4,5-tetrahydro-1H-benzofuro[2,3-d]azepine] | 101 to 1000 |  |  |  |
| FC(F)(F)c1ccc2c3c(oc2c1)CCNCC3 [Compound 43, 8-(trifluoromethyl)-2,3,4,5-tetrahydro-1H-benzofuro[2,3-d]azepine] | 10 to 100 | 101 to 1000 |  |  |
| FC(F)(F)Oc1ccc2c3c(oc2c1)CCNCC3 [Compound 44, 8-(trifluoromethoxy)-2,3,4,5-tetrahydro-1H-benzofuro[2,3-d]azepine] |  | 101 to 1000 |  |  |
| c1ccc(COc2ccc3c4c(oc3c2)CCNCC4)cc1 [Compound 45, 8-(benzyloxy)-2,3,4,5-tetrahydro-1H-benzofuro[2,3-d]azepine] | 101 to 1000 | 101 to 1000 |  |  |
| Fc1ccc2c3c(sc2c1)CCNCC3 [Compound 46, 8-fluoro-2,3,4,5-tetrahydro-1H-benzo[4,5]thieno[2,3-d]azepine] |  |  | < 10 | < 10 |
| c1ccc(COc2cccc3oc4c(c23)CCNCC4)cc1 [Compound 47, 10-(benzyloxy)-2,3,4,5-tetrahydro-1H-benzofuro[2,3-d]azepine] | 101 to 1000 | 10 to 100 |  |  |
| CN1CCCc2oc3cc(OCc4ccccc4)ccc3c2C1 [Compound 54, 8-(benzyloxy)-2-methyl-2,3,4,5-tetrahydro-1H-benzofuro[3,2-c]azepine] | > 10000 |  |  |  |
| c1ccc2c3c(sc2c1)CCN(C1CCC1)CC3 [Compound 73, 3-cyclobutyl-2,3,4,5-tetrahydro-1H-benzo[4,5]thieno[2,3-d]azepine] |  |  | 101 to 1000 |  |
| CN1CCc2sc3cc(OC(F)(F)F)ccc3c2CC1 [Compound 75, 3-methyl-8-(trifluoromethoxy)-2,3,4,5-tetrahydro-1H-benzo[4,5]thieno[2,3-d]azepine] |  |  | 101 to 1000 |  |
